miR122 inh – miR-122 Renilla sensor signal increase in Huh7, primary screen, miR-122 inhibitor project, cell-based, single point, plate reader | activation (reporter increase), % at 12.5 µM | hit rate 0.3% among 340,000 | Huh7 miR-122 Renilla luciferase sensor, 48 h; neutral wells = 0, positive control = 100;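 active means mean replicate activation score at least 90 and every replicate individually at or above 90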;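 further: higher luciferase means less miR-122 activity so hits act as miR-122 inhibitors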
esBAF inh – Bmi1 luciferase reporter increase in mESCs, primary screen, esBAF inhibitor project, mouse ES cells, Bmi1 luciferase knock-in, single point | 24 h; 100% = twice the neutral-well signal | reporter increase, % at 12.5 µM | hit rate 2% among 350,000; in the data active means activation above about 40%;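 further: a rise in the Bmi1 reporter signal indicates esBAF inhibition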
PglD inh – C. jejuni PglD acetyltransferase inhibitors, primary screen, biochemical, DTNB colorimetric, single point; purified PglD enzyme, DTNB colorimetric CoA detection; inhibition, % at 12.5 µM; hit rate 0.098% among 360,000; AID 602405, 2012; in the data active means inhibition above about 16%, passing the limit was not always enough
MITF act – activators of MITF-driven TRPM1 promoter reporter, primary screen, cell-based, SK-MEL-5, luciferase, single point. hit rate 0.75% among 300,000. SK-MEL-5 TRPM1-promoter luciferase, 24 h; % of positive control, neutral wells = 0. activation, % at 12.5 µM;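 active means mean activation of at least 80% with every replicate also reaching 80%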
UUG fidelity – alters start codon recognition fidelity in yeast. S. cerevisiae UUG-firefly luciferase reporter, luminescence/redox ratio. AID 602363. activity score, % at 18.7 µM. hit rate 0.13% among 350,000;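 active = replicate mean at a twofold rise or more, about +100% in these data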;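 note: firefly luciferase made from a UUG start codon reports start codon fidelity; reporter light over untreated wells divided by growth signal over untreated wells; some hits fall short of that in this replicate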
Wnt bcat act – Wnt/beta-catenin pathway activators, primary screen, cell-based, plate reader, single point; Wnt/beta-catenin reporter cell assay, activator; activation, % at 9.35 µM; hit rate 1.2% among 300,000; in the data active means activation above about 30%, passing the limit was not always enough
Each line names hits and unclear results; the compound was inactive in the other large screens; ! = not active in a repeat; [ ] = dose if it differs, or a comment. In the library only some 2.8% were active in any assay of this set; here they are far more common.

COc1ccc(CN(C)C[C@@H]2Oc3c(NC(=O)Nc4ccc(F)cc4)cccc3C(=O)N([C@@H](C)CO)C[C@H]2C)cc1	none (no result: MITF act, Wnt bcat act)
C[C@@H]1CN([C@@H](C)CO)C(=O)c2cccc(NS(C)(=O)=O)c2O[C@@H]1CN(C)S(=O)(=O)c1ccccc1	none (no result: MITF act, Wnt bcat act)
Cc1cccc(C(=O)NNC(=O)c2ccc(F)cc2)c1	none (no result: miR122 inh, esBAF inh, PglD inh, UUG fidelity)
Cc1cccc(C(=O)NNS(=O)(=O)c2ccc(F)cc2)c1	esBAF inh 42 (no result: MITF act)
CC(=O)N1N=C(c2ccc(Br)cc2)CC1c1ccc(Br)cc1 (stereo not drawn)	esBAF inh 61 (no result: MITF act)
COc1ccc2[nH]c(=O)c(CNc3cccc(C)c3)cc2c1	esBAF inh 56 (no result: Wnt bcat act)
COc1ccc(NCc2cc3cc(OC)ccc3[nH]c2=O)cc1	none
CO[C@H]1CN(C)C(=O)c2ccc(NC(=O)NC(C)C)cc2OC[C@H](C)N(C)C[C@H]1C	none (no result: miR122 inh, MITF act, UUG fidelity, Wnt bcat act)
C[C@H]1CN([C@@H](C)CO)C(=O)c2cccc(NC(=O)Nc3ccccc3)c2O[C@@H]1CN(C)Cc1ccc(C(=O)Nc2ccccc2N)cc1	miR122 inh 153[16.7 µM] (no result: MITF act, Wnt bcat act)
C[C@H](CO)N1C[C@H](C)[C@@H](CN(C)Cc2ccc(-c3ccccc3)cc2)Oc2c(NC(=O)Nc3ccc4c(c3)OCO4)cccc2C1=O	esBAF inh 43!
C[C@H]1CN([C@@H](C)CO)C(=O)c2cccc(NC(=O)Nc3ccc4c(c3)OCO4)c2O[C@@H]1CN(C)Cc1ccc(-c2ccccc2)cc1	none (no result: MITF act, Wnt bcat act)
C[C@H](CO)N1C[C@H](C)[C@@H](CN(C)Cc2ccc(C(=O)Nc3ccccc3N)cc2)Oc2c(NC(=O)Nc3ccccc3)cccc2C1=O	miR122 inh 97[16.7 µM] (no result: MITF act, Wnt bcat act)
C[C@@H]1CN([C@H](C)CO)C(=O)c2cccc(NC(=O)Nc3ccccc3)c2O[C@H]1CN(C)Cc1ccc(C(F)(F)F)cc1	miR122 inh 107[16.7 µM] (no result: MITF act, Wnt bcat act)
C[C@@H]1CN([C@@H](C)CO)C(=O)c2cccc(NC(=O)Nc3ccccc3)c2O[C@H]1CN(C)Cc1ccc(C(=O)Nc2ccccc2N)cc1	none (no result: MITF act, Wnt bcat act)
CC(=O)N(C)C[C@@H]1Oc2ncc(/C=C/c3ccccc3)cc2C(=O)N([C@@H](C)CO)C[C@H]1C	none (no result: MITF act, Wnt bcat act)
C[C@H]1CN([C@@H](C)CO)C(=O)c2cc(N(C)C)ccc2O[C@@H]1CN(C)C(=O)NC1CCCCC1	none (no result: MITF act, UUG fidelity, Wnt bcat act)
Cc1noc(C)c1S(=O)(=O)Nc1ccc2c(c1)C(=O)N([C@H](C)CO)C[C@@H](C)[C@@H](CN(C)CC1CCCCC1)O2	none (no result: MITF act, Wnt bcat act)
C[C@H](CO)N1C[C@H](C)[C@H](CN(C)CC2CC2)Oc2ncc(-c3ccc(F)cc3)cc2C1=O	none (no result: MITF act, Wnt bcat act)
C[C@H]1CN([C@@H](C)CO)C(=O)c2cccc(NC(=O)Nc3ccccc3)c2O[C@H]1CN(C)C	PglD inh 19 (no result: MITF act, Wnt bcat act)
C[C@@H]1CN([C@@H](C)CO)C(=O)c2cccc(NC(=O)c3cnccn3)c2O[C@@H]1CN(C)Cc1ccc(C(=O)Nc2ccccc2N)cc1	miR122 inh 129[16.7 µM] (no result: MITF act, Wnt bcat act)
C[C@H](CO)N1C[C@H](C)[C@@H](CN(C)S(=O)(=O)c2cn(C)cn2)Oc2c(NC(=O)Nc3ccc4c(c3)OCO4)cccc2C1=O	esBAF inh 50!
C[C@@H]1CN([C@H](C)CO)C(=O)c2cccc(NC(=O)Nc3ccc4c(c3)OCO4)c2O[C@H]1CN(C)S(=O)(=O)c1cn(C)cn1	none (no result: MITF act, Wnt bcat act)
C[C@@H]1CN([C@H](C)CO)C(=O)c2cccc(N(C)C)c2O[C@H]1CN(C)C(=O)Nc1ccccc1	miR122 inh 124[16.7 µM] (no result: MITF act, Wnt bcat act)
C[C@H]1CN([C@@H](C)CO)C(=O)c2cccc(NC(=O)c3ccncc3)c2O[C@@H]1CN(C)Cc1ccc(C(=O)Nc2ccccc2N)cc1	none (no result: MITF act, Wnt bcat act)
C[C@H](CO)N1C[C@H](C)[C@H](CN(C)C)Oc2c(NC(=O)Nc3ccccc3)cccc2C1=O	none (no result: MITF act, Wnt bcat act)
O=C(Nc1nccs1)[C@H]1[C@H](CO)[C@H]2Cn3c(ccc(-c4cccnc4)c3=O)[C@H]2N1CC1CCCC1	none (no result: MITF act, Wnt bcat act)
C[C@@H]1CCCCO[C@@H](CN(C)C(=O)c2ccncc2)[C@H](C)CN([C@@H](C)CO)C(=O)c2cc(N(C)C)ccc2O1	none (no result: MITF act, Wnt bcat act)
Cc1noc(C)c1NC(=O)N(C)C[C@@H]1OCCCC[C@H](C)Oc2ccc(NS(=O)(=O)c3c(C)noc3C)cc2C(=O)N([C@H](C)CO)C[C@@H]1C	none (no result: MITF act, Wnt bcat act)
CN(C)C(=O)c1ccc(-c2ccc([C@@H]3[C@@H](CO)N4CCCCN(C(=O)C5CCCC5)C[C@@H]34)cc2)cc1	none (no result: esBAF inh, MITF act, Wnt bcat act)
O=C(CCl)N=c1sccn1Cc1ccccc1Cl	none (no result: miR122 inh, esBAF inh)
O=C(Cn1ccsc1=NC(=O)C(F)(F)F)c1ccccc1	esBAF inh 49 (no result: Wnt bcat act)
CO[C@@H]1CN(C)C(=O)c2cc(NS(=O)(=O)c3ccc(-c4ccccc4)cc3)ccc2OC[C@H](C)NC[C@H]1C	none (no result: MITF act, Wnt bcat act)
C[C@@H]1CN([C@H](C)CO)C(=O)c2cccc(NS(=O)(=O)c3ccc(Cl)cc3)c2O[C@H]1CN(C)Cc1ccc(C(=O)O)cc1	none (no result: MITF act, Wnt bcat act)
C[C@@H]1CN([C@@H](C)CO)C(=O)c2cccc(NS(=O)(=O)c3ccccc3)c2O[C@@H]1CN(C)Cc1ccc(C(=O)Nc2ccccc2N)cc1	miR122 inh 181[16.7 µM] (no result: MITF act, Wnt bcat act)
C[C@@H]1CN([C@@H](C)CO)C(=O)c2cccc(NS(=O)(=O)c3ccc(Cl)cc3)c2O[C@@H]1CN(C)Cc1ccc(C(=O)Nc2ccccc2N)cc1	miR122 inh 129[16.7 µM] (no result: MITF act, Wnt bcat act)
O=C(C[C@@H]1C[C@@H]2c3cc(NC(=O)C4CCOCC4)ccc3O[C@@H]2[C@H](CO)O1)NCCc1ccccc1	none (no result: MITF act, Wnt bcat act)
CCCNC(=O)C[C@H]1C[C@H]2c3cc(NC(=O)CC4CC4)ccc3O[C@H]2[C@H](CO)O1	none (no result: MITF act, Wnt bcat act)
COc1ccc(C)cc1NC(=O)C(c1ccccc1)N1CCN(CC(=O)N2CCOCC2)CC1 (stereo not drawn)	none
Cc1ccc(NC(=O)C(c2ccccc2)N2CCN(CC(=O)N3CCOCC3)CC2)cc1 (stereo not drawn)	Wnt bcat act 33
O=c1nc(N/N=C/c2c[nH]c3ccccc23)cn[nH]1	Wnt bcat act 41 (no result: miR122 inh, esBAF inh, PglD inh, UUG fidelity)
O=C(C[C@@H]1C=C[C@H](NS(=O)(=O)c2ccc(F)cc2)[C@H](CO)O1)NC1CCCCC1	none (no result: miR122 inh, MITF act, UUG fidelity, Wnt bcat act)
O=C(C[C@@H]1CC[C@H]2[C@@H](COC[C@H](O)CN2C(=O)c2ccccc2F)O1)N1CCN(c2ccccc2)CC1	none (no result: MITF act, Wnt bcat act)
Cn1nnc2cc(NC(=O)Nc3ccccc3F)ccc21	Wnt bcat act 50 (no result: MITF act)
CN=Cc1cc(-c2ccccc2)sc1O	esBAF inh 64
Nc1sc(-c2ccccc2)cc1C(=O)N/N=C/c1ccc(Cl)cc1	none (no result: esBAF inh, MITF act)
CCCC(=O)n1nc(-c2ccc(C)cc2)nc1NCc1ccco1	Wnt bcat act 47 (no result: miR122 inh, esBAF inh)

High-throughput results deposited in PubChem BioAssay by Broad Institute.
